Screens (PubChem)
DT40 TDP1 no CPT: qHTS for Inhibitors of human tyrosyl-DNA phosphodiesterase 1 (TDP1): qHTS in cells in absence of CPT | 420,000 tested, 15% active | DT40 Tdp1-/- hTDP1 cells, no CPT, ATP luminescence, 48 h | Potency, µM (doses to about 46.2 µM), without a hit: at the top dose activity change, negative = growth inhibition, most hits filed as inhibitors; also: potency is read from the fitted curve at half-maximal effect; % is scaled to controls: 0 for no effect and ±100 for the full control effect; nearly all actives have a fitted effect of over 55% in size
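No-CPT arm: Tdp1-/-;hTDP1 DT40 cells (400/well) plus compounds, incubated ≥48 hr at 37 °C. Readout CellTiter-Glo luminescence.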
uPA generation: cell surface uPA generation inhibition | cell surface uPA generation assay, qHTS | Potency, µM (top dose mostly 38.3 µM), inactives show top-dose activity change, negative = inhibition, most hits filed as inhibitors | 330,000 tested, 0.31% active | AID 540303; active = well fitted inhibition curve with a large enough effect; inconclusive = small, poorly fitted or top-dose-only effect; inactive = no such curve, though single readings can be large or run the other way; tested in mouse RAW 264.7 cells; also: potency is read from the fitted curve at half-maximal effect; % is scaled to controls: 0 for no effect and ±100 for the full control effect; nearly all actives have a fitted effect of over 55% in size
TDP1 block: inhibitors of human tyrosyl-DNA phosphodiesterase TDP1; recombinant TDP1, AlphaScreen DNA substrate cleavage; AID 485290; 350,000 tested, 0.28% active; Q9NUW8; Potency, µM (titrated, usually from 130 µM), for inactives: top-dose activity change, negative = inhibition, actives largely listed as inhibitors; also: potency is read from the fitted curve at half-maximal effect; % is scaled to controls: 0 for no effect and ±100 for the full control effect; nearly all actives have a fitted effect of over 40% in size
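Signal: AlphaScreen proximity between streptavidin donor and anti-FITC acceptor beads on intact substrate. Reaction: Tdp1 1 nM, substrate 15 nM final, 5 min RT after 15 min compound preincubation.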
DT40 TDP1 CPT: growth inhibition of DT40 Tdp1-/-;hTDP1 cells with camptothecin (screen for TDP1 inhibitors); Potency, µM (top dose mostly 46.2 µM), for inactives: at the top dose activity change, negative = growth inhibition, most hits filed as inhibitors; AID 686979; 420,000 tested, 12% active; chicken DT40 Tdp1-/-;hTDP1 cells + 20 nM CPT, ATP luminescence, 48 h; also: potency is read from the fitted curve at half-maximal effect; % is scaled to controls: 0 for no effect and ±100 for the full control effect; nearly all actives have a fitted effect of over 55% in size
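Cell growth measured by CellTiter-Glo luminescence after a minimum 48 h, 37 C compound exposure with 20 nM CPT in Tdp1-knockout DT40 cells stably expressing hTDP1, seeded 400/well; qHTS titration format.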
miR-21 FLuc: raises the signal of a miR-21 reporter; 340,000 tested, under 10 active; HeLa miR-21 FLuc reporter, luciferase, 48 h; Potency, µM (series often up to 38.3 µM), for inactives: at the highest dose reporter change, positive = more light; active = well fitted rising curve with a large enough effect; inconclusive = small, poorly fitted or top-dose-only effect; inactive = no such curve, though single readings can be large or run the other way;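 further: % of control where 0% means no effect; miR-21 action dims this reporter so a rising signal means less miR-21 action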
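HeLa cells stably expressing CMV-driven firefly luciferase with a downstream miR-21 binding sequence, endogenously expressing miR-21, were treated with titrations (up to about 40uM final) for 48 hours at 37 degree Celsius. Luciferase luminescence was read after lysis.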
* = called active by the depositor; [ ] = dose if it differs, or a comment. Hits are enriched below; roughly 16% of the tested compounds scored in any of these assays. Unless noted, calls follow the shape of the dose curve; as a rule, active = well fitted curve in the direction sought with a large enough effect; inconclusive = small, poorly fitted or top-dose-only effect, or another doubt; inactive = no such curve, though single readings can be large; an effect the other way counts as inactive or inconclusive.

O=C(NC1CC1)c1ccccc1NC(=O)c1ccccc1OC(F)F was read as DT40 TDP1 no CPT -9.0% and DT40 TDP1 CPT 4.9%.
Screening Cc1nc(N2CCN(C(=O)c3ccco3)CC2)c2oc3ccccc3c2n1 returned DT40 TDP1 no CPT 20.6µM*, uPA generation -7.8%, TDP1 block 8.3%, DT40 TDP1 CPT 14.6µM* and miR-21 FLuc 23.9%.
For CCc1nc(N2CCN(C(=O)c3ccco3)CC2)c2oc3ccccc3c2n1 the results were DT40 TDP1 no CPT 20.6µM*, uPA generation -25.0%, TDP1 block 7.1%, DT40 TDP1 CPT 20.6µM* and miR-21 FLuc 22.9%.
Screening CC(C)(C)c1nc(N2CCN(C(=O)c3ccco3)CC2)c2nnn(Cc3ccccc3)c2n1 returned DT40 TDP1 no CPT 20.6µM*, uPA generation -14.7%, TDP1 block 5.0%, DT40 TDP1 CPT inconclusive and miR-21 FLuc -4.8%.
Screening CCc1nc(N2CCCC2C(=O)O)c2oc3ccccc3c2n1 (centres undefined) returned DT40 TDP1 no CPT 3.4%, uPA generation -7.2%, TDP1 block -2.0%, DT40 TDP1 CPT -4.6% and miR-21 FLuc 2.9%.
O=C(CCn1c(=O)c2cccn2c2cccnc21)NCc1ccccc1Cl was read as DT40 TDP1 no CPT -26.3%, TDP1 block 0.0%, DT40 TDP1 CPT -20.2% and miR-21 FLuc -3.1%.
COc1cc(CN(C)C(=O)C2CCN(S(=O)(=O)c3cccs3)CC2)ccc1OC(F)F was read as DT40 TDP1 no CPT inconclusive, uPA generation 2.6% and DT40 TDP1 CPT inconclusive.
For CN1C[C@@H]2[C@@H]3C(=O)N(Cc4ccccc4)C(=O)[C@@H]3[C@](Cc3ccccc3)(C1=O)N2C(=O)c1ccc(Cl)cc1 the results were DT40 TDP1 no CPT -9.2%, uPA generation 6.1% and DT40 TDP1 CPT inconclusive.
For Cc1ccc(C(=O)N2[C@@H]3CN(C)C(=O)[C@@]2(Cc2ccccc2)[C@H]2C(=O)N(Cc4ccccc4)C(=O)[C@@H]32)cc1 the results were DT40 TDP1 no CPT inconclusive, uPA generation -4.6% and DT40 TDP1 CPT 0.0052µM*.
For CC(C)CN(CC(C)C)CC(O)COc1ccc([N+](=O)[O-])cc1 (centres undefined) the results were DT40 TDP1 no CPT 18.4µM*, uPA generation 13.4%, TDP1 block 2.7%, DT40 TDP1 CPT inconclusive and miR-21 FLuc 0.9%.
For CCCCN(CCCC)CC(O)COc1ccccc1Br (centres undefined) the results were DT40 TDP1 no CPT 16.4µM*, uPA generation 4.6%, TDP1 block 0.0%, DT40 TDP1 CPT inconclusive and miR-21 FLuc 0.8%.
For Cc1ccccc1OCC(O)CN(CCO)Cc1ccccc1 (centres undefined) the results were DT40 TDP1 no CPT -9.0%, uPA generation -0.8%, TDP1 block 2.4%, DT40 TDP1 CPT -4.4% and miR-21 FLuc -1.6%.
For CC(C)CN(CC(C)C)CC(O)COc1ccccc1Br (centres undefined) the results were DT40 TDP1 no CPT 14.6µM*, uPA generation -2.7%, TDP1 block -4.5%, DT40 TDP1 CPT inconclusive and miR-21 FLuc -2.8%.
For COc1ccccc1OCC(O)CO (centres undefined) the results were DT40 TDP1 no CPT -3.3%, uPA generation 2.3%, TDP1 block 4.5%[56.1 µM], DT40 TDP1 CPT 2.1% and miR-21 FLuc -0.2%.
`Cc1nn(-c2ccccc2)c(C)c1C(=O)OCC(=O)Nc1ccccc1C(F)(F)F` gave DT40 TDP1 no CPT inconclusive, uPA generation -7.6%, TDP1 block 0.9% and DT40 TDP1 CPT inconclusive.
`COc1ccc(Cl)c2c1[nH]c1nc(SCc3ccccn3)nnc12` gave DT40 TDP1 no CPT 25.9µM*, uPA generation -1.3%, TDP1 block 0.0%, DT40 TDP1 CPT inconclusive and miR-21 FLuc -84.4%.
Clc1ccc(-[n+]2c(-c3cccc(Br)c3)[nH]c3nc4ccccc4nc32)cc1 was read as DT40 TDP1 no CPT 25.9µM*, uPA generation 7.2%, TDP1 block 2.8%, DT40 TDP1 CPT inconclusive and miR-21 FLuc -1.2%.
